Experimental data as given in PubChem BioAssay (NCI).
Values joined by “and” are separate entries in the source; they are usually repeats but may differ in a detail not shown here. Identical values can stand only once. The list shows a part of the results, in another mix than the full data.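 Compound tested at a single concentration for 48 hours in 96-well plates; a percent growth value below 10 was scored as active.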 Active and inactive are the calls of the source.

Key:
Test in all cases: NCI-60 one-dose screen, 48 h (100 = growth as untreated, 0 = no growth, -100 = all killed)
Details in all cases: 10 µM unless noted
NCI/ADR-RES ovarian = tested on: NCI/ADR-RES ovarian
T-47D breast = tested on: T-47D breast
BT-549 breast = tested on: BT-549 breast
MDA-MB-435 melanoma = tested on: MDA-MB-435 melanoma
SW-620 colon = tested on: SW-620 colon
MCF7 breast = tested on: MCF7 breast
HCT-116 colon = tested on: HCT-116 colon
HCC-2998 colon = tested on: HCC-2998 colon
KM12 colon = tested on: KM12 colon

Measured: growth

O=Cc1sc(N(CCCl)CCCl)nc1Cl
inactive: NCI/ADR-RES ovarian 102% | T-47D breast 88.3% | BT-549 breast 96.2% | MDA-MB-435 melanoma 102% | SW-620 colon 111% | MCF7 breast 98.5% | HCT-116 colon 91.3% | HCC-2998 colon 122% | KM12 colon 106%

CCCCCCCCCCNP(=S)(Cl)Cl
inactive: NCI/ADR-RES ovarian 104% | T-47D breast 101% | BT-549 breast 108% | MDA-MB-435 melanoma 102% | SW-620 colon 103% | MCF7 breast 93.7% | HCT-116 colon 104% | HCC-2998 colon 110% | KM12 colon 103%

CC(C)OP(=S)(Cl)OC(C)C
inactive: NCI/ADR-RES ovarian 110% | T-47D breast 93.7% | BT-549 breast 106% | MDA-MB-435 melanoma 99.7% | SW-620 colon 103% | MCF7 breast 96.3% | HCT-116 colon 100% | HCC-2998 colon 108% | KM12 colon 108%

CCCCCCCNP(=S)(Cl)Cl
inactive: NCI/ADR-RES ovarian 103% | T-47D breast 87.4% | BT-549 breast 102% | MDA-MB-435 melanoma 98.1% | SW-620 colon 104% | MCF7 breast 94.6% | HCT-116 colon 105% | HCC-2998 colon 92.6% | KM12 colon 105%

COc1cccc(OC)c1N(CCCl)CCCl
inactive: NCI/ADR-RES ovarian 96.7% | T-47D breast 89% | BT-549 breast 100% | MDA-MB-435 melanoma 102% | SW-620 colon 100% | MCF7 breast 87.7% | HCT-116 colon 105% | HCC-2998 colon 104% | KM12 colon 102%

COc1cc(I)ccc1[As](=O)(O)O
inactive: NCI/ADR-RES ovarian 140% | T-47D breast 95.7% | BT-549 breast 123% | MDA-MB-435 melanoma 103% | SW-620 colon 132% | MCF7 breast 95.7% | HCT-116 colon 98.4% | HCC-2998 colon 120% | KM12 colon 115%

c1cc(-c2nn[nH]n2)ccc1-c1nn[nH]n1
inactive: NCI/ADR-RES ovarian 102% | T-47D breast 99.2% | BT-549 breast 109% | MDA-MB-435 melanoma 90.5% | SW-620 colon 110% | MCF7 breast 95.4% | HCT-116 colon 108% | HCC-2998 colon 99.6% | KM12 colon 103%

O=[As](O)(O)c1ccc(I)cc1
inactive: NCI/ADR-RES ovarian 110% | T-47D breast 104% | BT-549 breast 95.6% | MDA-MB-435 melanoma 105% | SW-620 colon 104% | MCF7 breast 90.5% | HCT-116 colon 105% | HCC-2998 colon 118% | KM12 colon 104%

CN1C(=O)N(C)P12(Cl)N(C)C(=O)N2C
inactive: NCI/ADR-RES ovarian 106% | T-47D breast 103% | BT-549 breast 110% | MDA-MB-435 melanoma 112% | SW-620 colon 102% | MCF7 breast 101% | HCT-116 colon 105% | HCC-2998 colon 105% | KM12 colon 109%

CCN(CC)CCOC(=O)C(O)(c1cccc(OC)c1OC)c1cccc(OC)c1OC
inactive: NCI/ADR-RES ovarian 97.8% | T-47D breast 87.6% | BT-549 breast 105% | MDA-MB-435 melanoma 110% | SW-620 colon 95.5% | MCF7 breast 99% | HCT-116 colon 95% | HCC-2998 colon 116% | KM12 colon 103%

O=[N+]([O-])c1ccc([N+](=O)[O-])cc1
inactive: NCI/ADR-RES ovarian 99.1% | T-47D breast 97.1% | BT-549 breast 114% | MDA-MB-435 melanoma 111% | SW-620 colon 103% | MCF7 breast 95.5% | HCT-116 colon 92% | HCC-2998 colon 111% | KM12 colon 90.8%

S=P1(S)SC(Nc2ccccc2)CN1c1ccccc1 (centres undefined)
inactive: NCI/ADR-RES ovarian 104% | T-47D breast 101% | BT-549 breast 115% | MDA-MB-435 melanoma 107% | SW-620 colon 103% | MCF7 breast 95.4% | HCT-116 colon 103% | HCC-2998 colon 111% | KM12 colon 100%

CCCCCCC(C)OP(O)OC(C)CCCCCC (centres undefined)
inactive: NCI/ADR-RES ovarian 100% | T-47D breast 94.5% | BT-549 breast 107% | MDA-MB-435 melanoma 108% | SW-620 colon 103% | MCF7 breast 96.1% | HCT-116 colon 99.5% | HCC-2998 colon 102% | KM12 colon 105%

COc1ccc(C2N=C(NN=C(CCl)CCl)SP2(=O)Nc2ncccn2)c(OC)c1 (centres undefined)
inactive: NCI/ADR-RES ovarian 97.8% [100 µM] | T-47D breast 92.3% [100 µM] | BT-549 breast 102% [100 µM] | MDA-MB-435 melanoma 99.1% [100 µM] | SW-620 colon 104% [100 µM] | MCF7 breast 90.7% [100 µM] | HCT-116 colon 97.1% [100 µM] | HCC-2998 colon 101% [100 µM] | KM12 colon 99.4% [100 µM]

O=C(OC1CN2CCC1CC2)c1ccccc1 (centres undefined)
inactive: NCI/ADR-RES ovarian 103% | T-47D breast 102% | BT-549 breast 114% | MDA-MB-435 melanoma 94% | SW-620 colon 103% | MCF7 breast 101% | HCT-116 colon 108% | HCC-2998 colon 103% | KM12 colon 112%

COP(=O)(CCCBr)OC
inactive: NCI/ADR-RES ovarian 105% | T-47D breast 101% | BT-549 breast 103% | MDA-MB-435 melanoma 99.3% | SW-620 colon 111% | MCF7 breast 95.3% | HCT-116 colon 102% | HCC-2998 colon 112% | KM12 colon 115%

CCOC(=O)Nc1ccc([As](=O)(O)O)c(O)c1
inactive: NCI/ADR-RES ovarian 111% | T-47D breast 83.7% | BT-549 breast 72% | MDA-MB-435 melanoma 105% | SW-620 colon 117% | MCF7 breast 91.3% | HCT-116 colon 108% | HCC-2998 colon 104% | KM12 colon 107%

C/C(N)=N/P(=O)(Oc1ccccc1)Oc1ccccc1
inactive: NCI/ADR-RES ovarian 105% | T-47D breast 96.5% | BT-549 breast 89.5% | MDA-MB-435 melanoma 108% | SW-620 colon 107% | MCF7 breast 95.7% | HCT-116 colon 96.8% | HCC-2998 colon 99.1% | KM12 colon 103%

O=[N+]([O-])c1ccc(CCCCCCc2ccc([N+](=O)[O-])cc2[N+](=O)[O-])c([N+](=O)[O-])c1
inactive: NCI/ADR-RES ovarian 97% | T-47D breast 65.5% | BT-549 breast 91.8% | MDA-MB-435 melanoma 99.1% | SW-620 colon 90.8% | MCF7 breast 94.5% | HCT-116 colon 86% | HCC-2998 colon 102% | KM12 colon 90%

ClCCNCc1cccc(Cl)c1
inactive: NCI/ADR-RES ovarian 109% | T-47D breast 96.9% | BT-549 breast 101% | MDA-MB-435 melanoma 102% | SW-620 colon 100% | MCF7 breast 90.7% | HCT-116 colon 102% | HCC-2998 colon 109% | KM12 colon 109%

NC(=O)c1[nH]cnc1/N=N\N(CCCl)CCCl
inactive: NCI/ADR-RES ovarian 109% | T-47D breast 109% | BT-549 breast 240% | MDA-MB-435 melanoma 125% | SW-620 colon 107% | MCF7 breast 109% | HCT-116 colon 104% | HCC-2998 colon 107% | KM12 colon 115%

ClCC1CS1 (centres undefined)
inactive: NCI/ADR-RES ovarian 106% | T-47D breast 94.6% | BT-549 breast 97.1% | MDA-MB-435 melanoma 106% | SW-620 colon 105% | MCF7 breast 88.9% | HCT-116 colon 96.5% | HCC-2998 colon 116% | KM12 colon 103%

Cc1ccc(NCCCl)c2c(=O)c3ccccc3sc12
inactive: NCI/ADR-RES ovarian 89.4% | T-47D breast 103% | BT-549 breast 103% | MDA-MB-435 melanoma 90.7% | SW-620 colon 97.7% | MCF7 breast 91.1% | HCT-116 colon 97.3% | HCC-2998 colon 94.3% | KM12 colon 106%

COc1cc([N+](=O)[O-])c([N+](=O)[O-])cc1N
inactive: NCI/ADR-RES ovarian 97% | T-47D breast 96.3% | BT-549 breast 101% | MDA-MB-435 melanoma 102% | SW-620 colon 104% | MCF7 breast 95.3% | HCT-116 colon 100% | HCC-2998 colon 95.3% | KM12 colon 107%

CCOP(=O)(CCBr)OCC
inactive: NCI/ADR-RES ovarian 113% and 105% | T-47D breast 108% and 96.4% | BT-549 breast 100% and 106% | MDA-MB-435 melanoma 96.3% and 95.1% | SW-620 colon 100% and 98.1% | MCF7 breast 86.8% and 93.4% | HCT-116 colon 107% and 103% | HCC-2998 colon 114% and 105% | KM12 colon 104% and 108%

O=[N+]([O-])c1cc2cn[nH]c2cc1[N+](=O)[O-]
inactive: NCI/ADR-RES ovarian 101% | T-47D breast 101% | BT-549 breast 93.9% | MDA-MB-435 melanoma 108% | SW-620 colon 101% | MCF7 breast 81.8% | HCT-116 colon 104% | HCC-2998 colon 110% | KM12 colon 105%

ClCCNCC1COc2ccccc2O1 (centres undefined)
inactive: NCI/ADR-RES ovarian 109% | T-47D breast 88.7% | BT-549 breast 99.4% | MDA-MB-435 melanoma 108% | SW-620 colon 104% | MCF7 breast 97.4% | HCT-116 colon 104% | HCC-2998 colon 110% | KM12 colon 98.8%

Nc1ccc([As](=O)(O)c2ccc(N)cc2)cc1
inactive: NCI/ADR-RES ovarian 85.6% | T-47D breast 97.7% | BT-549 breast 124% | MDA-MB-435 melanoma 104% | SW-620 colon 94.8% | MCF7 breast 92% | HCT-116 colon 93.5% | HCC-2998 colon 96.5% | KM12 colon 103%

CCOCCN(CCCl)Cc1ccccc1
inactive: NCI/ADR-RES ovarian 105% | T-47D breast 85.1% | BT-549 breast 104% | MDA-MB-435 melanoma 108% | SW-620 colon 112% | MCF7 breast 100% | HCT-116 colon 96.3% | HCC-2998 colon 107% | KM12 colon 106%

O=[N+]([O-])N1CCCS1(=O)=O
inactive: NCI/ADR-RES ovarian 105% | T-47D breast 91.1% | BT-549 breast 114% | MDA-MB-435 melanoma 107% | SW-620 colon 109% | MCF7 breast 102% | HCT-116 colon 97.9% | HCC-2998 colon 105% | KM12 colon 102%

CN(C)C(=O)NP(=O)(N(C)C)N(C)C
inactive: NCI/ADR-RES ovarian 102% | T-47D breast 103% | BT-549 breast 114% | MDA-MB-435 melanoma 103% | SW-620 colon 106% | MCF7 breast 95.9% | HCT-116 colon 105% | HCC-2998 colon 108% | KM12 colon 109%
